Experimental data: patent US20170183390A1

By UniProt entry, the sequences of proteins in these tests, tags left out. Residues count along the entry.
UniProt P01137, 30-390 limits assumed: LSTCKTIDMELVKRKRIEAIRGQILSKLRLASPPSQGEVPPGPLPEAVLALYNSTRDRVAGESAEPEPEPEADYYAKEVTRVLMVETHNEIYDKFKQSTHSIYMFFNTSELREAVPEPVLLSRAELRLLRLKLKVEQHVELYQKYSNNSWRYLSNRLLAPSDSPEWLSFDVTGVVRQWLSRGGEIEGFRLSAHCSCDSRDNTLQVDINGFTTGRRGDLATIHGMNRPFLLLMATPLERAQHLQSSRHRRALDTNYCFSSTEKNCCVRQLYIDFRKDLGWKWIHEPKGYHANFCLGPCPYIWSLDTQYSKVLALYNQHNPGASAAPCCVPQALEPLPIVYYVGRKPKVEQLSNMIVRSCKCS

Molecular target: purified pro-TGF-β1 (UniProt P01137)
Assay: Biacore (SPR); orientation not stated

Kd: 0.18 nM
Substance: 3-domain αVβ6 integrin fragment, disulfide-linked (αV β-propeller and thigh domains with M400C; β6 βI domain with I270C) (from UniProt P06756 31-625; P18564 130-372) (receptor)
